In published antibiotic growth screens (doi:10.1038/s41589-023-01349-8):
The other results are listed elsewhere or left out.

system: A. baumannii ATCC 17978; experiment: relative growth (fraction of control); higher = less inhibition; settings: 50 µM

SMILES	relative growth
CO[C@H]1/C=C/O[C@@]2(C)Oc3c(C)c(O)c4c(O)c(c(/C=N/N5CCN(C6CCCC6)CC5)c(O)c4c3C2=O)NC(=O)/C(C)=C\C=C\[C@H](C)[C@H](O)[C@@H](C)[C@@H](O)[C@@H](C)[C@H](OC(C)=O)[C@@H]1C	0.185
COc1cccc(OC)c1C(=O)N[C@@H]1C(=O)N2[C@@H]1SC(C)(C)[C@@H]2C(=O)[O-].[Na+]	1.13
O=c1c(O)c(-c2ccccc2)oc2cc(O)ccc12	0.962
O=C(O)c1ccc(CCO)s1	0.929
COc1ccc(-c2coc3cc(OC)cc(OC)c3c2=O)cc1	1.09
N[C@@H](CSCc1ccccc1Cl)C(=O)O	0.997
CN1CCN(C(=O)C[C@@H]2CC[C@@H]3[C@@H](COc4ccc(NC(=O)C5CCCCC5)cc4C(=O)N3C)O2)CC1	1.09
O=C(COc1ccc(Cl)cc1Cl)NCCn1ncc2c(=O)n(Cc3cccc([N+](=O)[O-])c3)cnc21	0.884
Cl.Clc1cccc(Cl)c1N=C1NCCN1	1.09
O=C1O[C@H](c2ccccc2)[C@H](c2ccccc2)N2[C@H]1[C@@H](C(=O)O)[C@]1(C(=O)Nc3ccc(C#CC4=CCCCC4)cc31)[C@H]2c1ccc(O)cc1	1.24
O=C(O)C1(c2cccs2)CCCC1	0.873
O=C(CCCCC(=O)N/N=C/[C@H](O)[C@@H](O)[C@@H](O)[C@H](O)CO)NO	0.743
CS(=O)(=O)SCCN	0.862
C[C@@H](O)C#Cc1ccc2c(c1)O[C@H](CN(C)C)[C@@H](C)CN([C@@H](C)CO)S2(=O)=O	0.897
COc1ccc(C2CNC(=O)C2)cc1OC1CCCC1 (stereo unspecified)	1.01
O=c1c(O)c(-c2ccc(O)cc2O)oc2cc(O)cc(O)c12	0.992
COc1nsnc1N1CCOCC1	1.17
CN1CCN(C(=O)C[C@@H]2CC[C@H]3[C@@H](COC[C@H](O)CN3C(=O)C3CC3)O2)CC1	0.961
COCC#Cc1ccc2c(c1)O[C@H](CN(C)C(=O)Nc1ccccc1F)[C@@H](C)CN([C@@H](C)CO)S2(=O)=O	0.977

SMILES	relative growth
CCc1ccc(NC(=O)C2CCN(S(=O)(=O)c3c(C)[nH]c(=O)[nH]c3=O)CC2)cc1	1.12
CN(C)CCCN1c2ccccc2Sc2ccc(C(F)(F)F)cc21.Cl	0.167
C[C@@H]1CNC(=O)CO1	1.18
Cn1c(=O)cc(N2CCCC(N)C2)n(Cc2ccccc2C#N)c1=O.O=C(O)c1ccccc1 (stereo unspecified)	1.32
O=C(O)[C@@H](O)Cc1ccc(O)c(O)c1	0.843
O=C(NO)c1cccc(C(=O)N/N=C/[C@H](O)[C@H](O)[C@@H](O)[C@@H](O)CO)c1	1.12
CC(C)NC(=O)N[C@H]1C=C[C@H](CC(=O)NCCN2CCCC2)O[C@@H]1CO	0.941
C#C[C@]1(O)CCC2C3CCc4cc(OC)ccc4C3CC[C@@]21C (stereo partly specified)	1.21
COCCNC(=O)C[C@@H]1C[C@H]2c3cc(NS(C)(=O)=O)ccc3O[C@H]2[C@H](CO)O1	1.03
Cl.OC(c1cc(C(F)(F)F)nc2c(C(F)(F)F)cccc12)C1CCCCN1 (stereo unspecified)	0.156
Cc1ccccc1C(OCCN(C)C)c1ccccc1.O=C(O)CC(O)(CC(=O)O)C(=O)O (stereo unspecified)	0.926
Cc1cc(SC(=O)N/C=C/c2ccco2)c(C)cc1Cl	1.19
COc1cc(-c2coc3cc(O[C@@H]4O[C@H](CO)[C@@H](O)[C@H](O)[C@H]4O)c(OC)c(O)c3c2=O)cc(O)c1OC	1.18
O=C(C[C@@H]1CC=CCC[C@@H](Cc2ccc(F)cc2)C(=O)OC[C@@H](Cc2c[nH]c3ccccc23)NC1=O)N[C@@H](CO)Cc1ccccc1	0.943
Cc1c(O)c(=O)ccn1C	0.822
NC(=O)N1C(=O)[C@H]2[C@H](C1=O)[C@H]1C=C(CCCO)[C@@H]2[C@H](c2ccc(CN3CCCC3)cc2)N1Cc1sc2ccccc2c1Cl	1.05
C[C@@H]1CN([C@@H](C)CO)S(=O)(=O)c2ccc(C#Cc3cccc(F)c3)cc2O[C@H]1CN(C)S(=O)(=O)c1ccccc1F	1.15
COc1cccc(NC(=O)N2C[C@H](O)COC[C@@H]3O[C@@H](CC(=O)NCc4ccccc4F)CC[C@H]32)c1	0.87
O=S(=O)(O)c1cc(O)ccc1O	1.02

SMILES	relative growth
Cn1c(N)c(S(=O)(=O)N2CCCC[C@@H]2c2cccnc2)c(=O)n(C)c1=O	1.02
CC(=O)O[C@]1(C(C)=O)CCC2C3C[C@H](C)C4=CC(=O)CC[C@]4(C)C3CC[C@@]21C (stereo partly specified)	1.07
O=S(=O)(c1ccccc1)N1CCN(CCO)CC1	1.03
COc1ccc(CNC(=O)C[C@@H]2C[C@H]3c4cc(NS(=O)(=O)c5ccc(F)cc5)ccc4O[C@H]3[C@@H](CO)O2)cc1	0.919
CCC(=O)O[C@]1(C(=O)CCl)[C@@H](C)C[C@H]2[C@@H]3CCC4=CC(=O)C=C[C@]4(C)[C@@]3(F)[C@@H](O)C[C@@]21C	0.942
NS(=O)(=O)c1ccc(NC(=O)[C@H]2CCCNC2=O)cc1	0.952
O=C1C[C@@H](c2ccc(O)cc2)Oc2cc(O)cc(O)c21	0.986
Nc1ccc(C(=O)[O-])c(O)c1.[Na+]	0.926
COC(=O)C1CCN(S(=O)(=O)c2c(C)n(C)c(=O)n(C)c2=O)CC1	1.11
CCc1ccc(Nc2c3c(nc4ccccc24)CCC3)cc1	0.135
CSC1=N[C@@]2(C)CCCC[C@@H]2c2c1ccc1ccccc21	0.931
C/C1=C/[C@@]23O[C@@]2(C[C@H](C)[C@H]3O[C@H]2O[C@@H](CO)[C@@H](O)[C@@H](O)[C@@H]2O)C(=O)[C@H](C)[C@H](O)[C@@H]2C([C@H](O)[C@@H]1O)C2(C)C (stereo partly specified)	1.13
Cc1cc(-c2ccccc2)nnc1NCCN1CCOCC1.Cl.Cl	1.15
O=C(NCCn1ncc2c(=O)n(Cc3ccccc3)cnc21)c1ccc(S(=O)(=O)N2CCOCC2)cc1	1.08
NNC(=O)c1cccc(C(F)(F)F)n1	1.03
COc1cccc(S(=O)(=O)Nc2ccc3c(c2)OC[C@@H](C)N(C(=O)Cc2cccnc2)C[C@@H](C)[C@@H](OC)CN(C)C3=O)c1	1
CN(C)CC(=O)N[C@@H]1CC[C@H](CCNC(=O)C2CCC2)O[C@@H]1CO	1.13
NC(=O)c1ccc([N+](=O)[O-])cc1Cl	1.05
